Reference: patent US20030229105A1, “Treatment of autoimmune disorders” (Cyclacel Limited, priority 2002, published 2003)

Test system: cdk1 and 2 transcription
Assay type: cell-based
Details: infected cells, preliminary Northern blot (data not shown)

Substance: Roscovitine
- transcription of cdk1 and 2: not affected
